Publication PMC3983056 (PLoS Pathogens, 2014)

Molecular target: T1, human HDAC-10 (Homo sapiens, UniProt Q969S8)
T1 construct: purchased Reaction Biology Corporation (Malvern, PA)
T1 sequence (Q969S8 1-669): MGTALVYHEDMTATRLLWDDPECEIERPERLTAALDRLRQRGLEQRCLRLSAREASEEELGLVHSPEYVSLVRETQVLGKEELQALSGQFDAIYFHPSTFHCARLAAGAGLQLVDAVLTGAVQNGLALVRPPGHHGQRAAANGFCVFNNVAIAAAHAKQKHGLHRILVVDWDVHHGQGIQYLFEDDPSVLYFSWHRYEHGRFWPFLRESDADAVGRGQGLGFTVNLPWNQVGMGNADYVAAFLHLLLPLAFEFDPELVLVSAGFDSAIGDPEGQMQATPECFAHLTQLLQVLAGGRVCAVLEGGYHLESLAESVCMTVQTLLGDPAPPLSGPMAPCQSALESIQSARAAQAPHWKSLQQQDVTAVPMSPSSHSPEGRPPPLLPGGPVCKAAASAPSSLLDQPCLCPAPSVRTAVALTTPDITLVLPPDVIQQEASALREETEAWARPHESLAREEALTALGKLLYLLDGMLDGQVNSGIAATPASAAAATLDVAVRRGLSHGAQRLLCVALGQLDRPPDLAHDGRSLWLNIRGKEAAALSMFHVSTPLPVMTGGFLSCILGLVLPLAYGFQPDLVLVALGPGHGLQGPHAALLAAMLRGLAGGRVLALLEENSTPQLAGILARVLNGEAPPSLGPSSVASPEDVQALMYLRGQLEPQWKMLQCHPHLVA
Assay: HDAC inhibition assay
Format: biochemical
Conditions: HDAC class 2b; mean of two experiments

Question: `O=C(CCCCCCC(=O)Nc1ccccc1)NO` [VOR, suberoylanilide hydroxamic acid] was tested. Which IC50 did it give?
Answer: 527 nM
